Values quoted from earlier work in US20100035866A1, “NOVEL SUBSTITUTED-1, 1-DIOXO-BENZO[1,2,4]THIADIAZIN-3ONES, PREPARATION METHOD THEREOF, AND PHARMACEUTICAL COMPOSITION CONTAINING THE SAME” (KOREA RESEARCH INSTITUTE OF CHEMICAL TECHNOLOGY, priority 2006, published 2010).

Amino acid sequences for entries named in this document (tags omitted).
UniProt P50406, whole entry: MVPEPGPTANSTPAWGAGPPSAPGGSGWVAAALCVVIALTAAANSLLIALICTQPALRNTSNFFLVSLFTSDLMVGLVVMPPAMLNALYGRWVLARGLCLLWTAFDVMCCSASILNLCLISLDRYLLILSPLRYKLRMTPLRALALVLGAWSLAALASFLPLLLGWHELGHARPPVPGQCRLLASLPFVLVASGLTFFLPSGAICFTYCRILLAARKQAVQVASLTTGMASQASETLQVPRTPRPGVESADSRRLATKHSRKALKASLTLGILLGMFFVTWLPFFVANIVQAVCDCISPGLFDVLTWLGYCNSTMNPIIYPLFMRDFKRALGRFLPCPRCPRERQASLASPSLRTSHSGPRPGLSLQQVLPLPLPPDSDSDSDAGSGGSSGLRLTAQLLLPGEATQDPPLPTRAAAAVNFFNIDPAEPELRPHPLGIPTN

Assays:
[1] = background art; cited from earlier work
[2] = test system: other 5-HT receptors / other receptor binding sites; conditions: background art; cited from earlier work
5-HT6 receptors = 5-HT6 receptors (Homo sapiens, UniProt P50406); conditions: read-out: Ki at 5-HT6 receptors; background art; cited from earlier work

COc1ccc(NS(=O)(=O)c2ccc(Br)cc2)cc1N1CCN(C)CC1
bioavailability (in words) [1]: low bioavailability
blood clearance (in words) [1]: rapid blood clearance
brain penetrant [1]: 25%
affinity for 50 other receptor/binding sites [2]: no measurable affinity
selectivity over 10 other 5-HT receptors [2]: > 50 fold
Ki (5-HT6 receptors): 5 nM
